Measured values published in patent US20240226027A1, “PHARMACEUTICAL COMPOSITION IN THE FORM OF AN INJECTABLE NANOCOMPOSITE GEL FOR CO-DELIVERY OF MULTIPLE MEDICINES OR DRUGS” (Nuecology Biomedical Inc., priority 2023, published 2024).

Test system: SKBR-3-derived tumor
Experiment: in-vivo study of the trastuzumab gel, SKBR3 breast tumor
Set-up: species or system BALB/c Nude mice
Conditions: SC injection
Excerpt: The injectable nanocomposite gel carrying biosimilar drug, i.e., trastuzumab, with different dosing concentration designed based on clinical data per dosing, for a subsequent animal study. The breast tumor was cultivated by injection 1×10^7 SKBR3 cells to the right flank region of the mice, and the controls are given below: • Objects: Seven-week-old BALB/c Nude mice (Female) • Quantity: 5 groups, 4 mice for each group, totally 20. • Reagent and Drugs: (1) PBS; (2) free-trastuzumab; (3) 1× trastuzumab gel; (4) 2× trastuzumab gel; (5) 3× trastuzumab gel (for 3-week dose at one injection) • Dose: 25 mg/kg and 50 mg/kg, and 75 mg/kg, one SC injection per week • Injection frequency: Three doses on 2 weeks (Subcutaneous injection) • Injection Volume: 100 ul/20 g • Observation: The body weights of the mice were measured, and the tumor size for each mouse was measured twice a week. • Test period: 2-3 weeks, depending on size change of the breast tumor. • Injection site: subcutaneous site on the left flank region of the mice

Question: How did the tumor size (first week, from ~100 mm^3, PBS control nearly 1000 mm^3) turn out when trastuzumab [free trastuzumab] was run?
Answer: 813 mm^3

Question: And the tumor size (second week, PBS control ~1800 mm^3)?
Answer: ~1500 mm^3
